A short description of this data set: 12-lead ECG monitoring during the core phase. The conditions noted are these: period 2 (ketoconazole only), N = 14.

The record followed here is article PMC3162150 (Cancer Chemotherapy and Pharmacology, 2011).

As for `CC(=O)N1CCN(c2ccc(OCC3COC(Cn4ccnc4)(c4ccc(Cl)cc4Cl)O3)cc2)CC1` (stereo not drawn) [ketoconazole, reference compound], the “QTcB increase >60 ms” value is listed as 0 patients (%), the ST segment depression is 0 patients (%) and the Sinus bradycardia is listed as 1 (7%) patients (%).
